Measurements published in ChEMBL document CHEMBL1811898, “Discovery and structure-activity relationships of modified salicylanilides as cell permeable inhibitors of poly(ADP-ribose) glycohydrolase (PARG)” (J Med Chem, 2011).

Chains of the proteins cited; added tags and fusions are not shown.
UniProt P09874, whole entry: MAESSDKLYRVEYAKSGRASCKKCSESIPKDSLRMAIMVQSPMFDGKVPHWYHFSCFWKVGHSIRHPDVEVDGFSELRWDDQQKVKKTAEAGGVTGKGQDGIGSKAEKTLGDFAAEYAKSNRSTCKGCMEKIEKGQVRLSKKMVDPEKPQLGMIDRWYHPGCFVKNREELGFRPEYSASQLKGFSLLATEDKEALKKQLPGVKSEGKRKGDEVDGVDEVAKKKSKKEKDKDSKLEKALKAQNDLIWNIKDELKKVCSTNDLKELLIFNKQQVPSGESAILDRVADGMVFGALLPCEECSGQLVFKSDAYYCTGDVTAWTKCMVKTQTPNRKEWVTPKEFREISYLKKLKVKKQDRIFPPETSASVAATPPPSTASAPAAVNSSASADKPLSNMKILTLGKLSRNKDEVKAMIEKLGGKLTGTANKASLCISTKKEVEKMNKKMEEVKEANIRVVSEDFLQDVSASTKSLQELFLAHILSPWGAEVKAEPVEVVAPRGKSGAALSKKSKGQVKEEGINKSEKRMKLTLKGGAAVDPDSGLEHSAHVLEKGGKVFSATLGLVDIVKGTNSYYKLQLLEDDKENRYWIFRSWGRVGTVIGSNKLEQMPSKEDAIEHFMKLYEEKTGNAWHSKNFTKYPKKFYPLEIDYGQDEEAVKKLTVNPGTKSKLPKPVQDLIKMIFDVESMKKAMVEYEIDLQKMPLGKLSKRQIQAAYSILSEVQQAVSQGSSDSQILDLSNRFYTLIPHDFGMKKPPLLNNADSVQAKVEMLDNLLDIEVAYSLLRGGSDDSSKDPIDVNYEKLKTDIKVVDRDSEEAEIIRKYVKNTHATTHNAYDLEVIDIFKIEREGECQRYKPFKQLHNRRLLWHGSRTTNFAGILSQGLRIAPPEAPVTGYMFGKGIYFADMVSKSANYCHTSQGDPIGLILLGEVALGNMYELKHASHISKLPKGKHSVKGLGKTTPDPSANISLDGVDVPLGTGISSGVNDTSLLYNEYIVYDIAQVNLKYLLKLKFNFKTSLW

Biological target: Poly [ADP-ribose] polymerase 1 (Homo sapiens, UniProt P09874)
Experiment: Inhibition of PARP-1 using [32P]-NAD+ after 15 mins

IC50: 22 µM
SMILES: O=C(Nc1cc(Cl)ccc1Oc1ccc2ccccc2c1Cl)c1cc(Cl)cc(Br)c1O
